Source: PubChem BioAssay AID504766 (The Scripps Research Institute Molecular Screening Center, 2011)
The list shows a part of the results, in another mix than the full data. Some structures show a salt or complex split into parts, the way the source records it. Activity calls are given as the source filed them.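 How the source made its calls: active means inhibition above the mean over all tested compounds plus 3 SD (cut at about 4.2% in these data); inactive means the rest.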

Sequences of proteins named here, by UniProt entry; tags and fusion partners are left off. Residues count along the entry.
UniProt P51843, 207-470 limits assumed: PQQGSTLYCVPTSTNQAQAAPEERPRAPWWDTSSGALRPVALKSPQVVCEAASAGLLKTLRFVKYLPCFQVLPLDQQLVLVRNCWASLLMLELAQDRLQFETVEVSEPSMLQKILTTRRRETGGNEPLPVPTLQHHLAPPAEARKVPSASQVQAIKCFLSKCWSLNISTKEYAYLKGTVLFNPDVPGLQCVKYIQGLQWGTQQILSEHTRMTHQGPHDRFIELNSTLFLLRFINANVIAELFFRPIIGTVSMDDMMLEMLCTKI

These compounds were tested against Nuclear receptor subfamily 0 group B member 1 (Homo sapiens) (UniProt P51843) (assay: relief of DAX1 transcriptional repression – cell-based, HEK293, Gal4-DAX1, luciferase luminescence, primary screen (AID 504766;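 further: 0% = DAX1-transfected cells with DMSO and 100% = empty-vector control cells with DMSO; inhibition shows as a rise in luminescence from relieved DAX1 repression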)). Conditions: HEK293 Gal4-DAX1 luciferase reporter, at 6.75 µM, hits give high values.

SMILES | inhibition
CP(=O)(Nc1ccccn1)Oc1ccc(Cl)cc1 (configuration not stated) | inactive: 0.29%
CCOP(C)(=S)SCC(=O)NC(C)C(=O)O (configuration not stated) | inactive: 0.82%
CCOC(=O)c1ccc(NP(C)(=O)Oc2ccc(OC)cc2)cc1 (configuration not stated) | inactive: -1.61%
CP(=O)(NC(=O)Nc1ccccc1)Oc1ccccc1 (configuration not stated) | inactive: 0.17%
CCc1ccc(OP(C)(=O)N2CCN(c3ccc([N+](=O)[O-])cc3)CC2)cc1 (configuration not stated) | inactive: -3.56%
Cc1cc(C)cc(OP(C)(=O)Nc2ccc(SC(F)(F)F)cc2)c1 (configuration not stated) | inactive: 0.15%
Cc1cccc(C)c1OP(C)(=O)Nc1ccc(SC(F)(F)F)cc1 (configuration not stated) | inactive: -1.1%
Cc1ccc(Nc2c([N+](=O)[O-])cc([N+](=O)[O-])cc2[N+](=O)[O-])cc1 | inactive: -0.14%
CP(=O)(Oc1ccccc1)OC(c1ccccc1)C(F)(F)F (configuration not stated) | inactive: 0.72%
COc1ccccc1OP(C)(=O)Nc1ccccc1 (configuration not stated) | inactive: 3.8%
CP(=O)(Nc1ccccc1Br)Oc1ccccc1 (configuration not stated) | inactive: -2.59%
CP(=S)(Nn1cnnc1)Oc1ccccc1 (configuration not stated) | inactive: -0.05%
COc1ccccc1OP(C)(=O)Nc1cc(Cl)ccc1C (configuration not stated) | inactive: -1.12%
COc1ccc(OP(C)(=O)Nc2cccc(F)c2)cc1 (configuration not stated) | inactive: -0.26%
Cc1cc(C)cc(OP(C)(N)=O)c1 (configuration not stated) | inactive: -0.52%
CCOC(=O)c1ccc(NP(C)(=O)Oc2ccccc2)cc1 (configuration not stated) | inactive: 0.33%
COc1ccccc1OP(C)(=O)Nc1ccc(C)cc1 (configuration not stated) | inactive: -0.35%
Cc1ccc(NP(C)(=O)Oc2ccccc2)c(C)c1 (configuration not stated) | inactive: -0.43%
CC(C)(C)c1ccc(OP(C)(=O)Nc2ccc(SC(F)(F)F)cc2)cc1 (configuration not stated) | inactive: -1.87%
Cc1cccc(C)c1OP(C)(N)=O (configuration not stated) | inactive: -1.58%
O=[N+]([O-])c1ccc2c(c1)C=Nc1ccccc1O2 | inactive: -1.33%
O=[N+]([O-])c1cc([N+](=O)[O-])c(Nc2cccnc2)c([N+](=O)[O-])c1 | inactive: -1.59%
CCN(CC)CCCOC(=O)C(O)(c1ccccc1)c1ccccc1 | active: 6.29%

SMILES | inhibition
Cc1cc(C)cc(OP(C)(=O)Nc2ccccn2)c1 (configuration not stated) | inactive: -0.44%
CP(=O)(Nc1cccc(Br)c1)Oc1ccccc1 (configuration not stated) | inactive: 1.03%
Cc1ccc(C)c(NP(C)(=O)Oc2ccccc2)c1 (configuration not stated) | inactive: -1.35%
Cc1cc(C)cc(OP(C)(=O)Nc2ccc(C)cc2C)c1 (configuration not stated) | inactive: -0.59%
CCOC(=O)c1ccc(NP(C)(=O)Oc2cc(C)cc(C)c2)cc1 (configuration not stated) | inactive: -1.37%
COc1ccccc1OP(C)(=O)Nc1cccc(Br)c1 (configuration not stated) | inactive: -0.99%
CC1=NCCc2c1[nH]c1ccccc21.O=[N+]([O-])c1cc([N+](=O)[O-])c(O)c([N+](=O)[O-])c1 | inactive: -0.92%
O=C(O)c1cccc(Nc2c([N+](=O)[O-])cc([N+](=O)[O-])cc2[N+](=O)[O-])c1 | inactive: 3.65%
CCCOc1ccc(NP(C)(=O)Oc2ccc(Cl)cc2)cc1 (configuration not stated) | inactive: 0.99%
CP(=O)(Nc1ccc(SC(F)(F)F)cc1)Oc1ccccc1 (configuration not stated) | inactive: -1.99%
COc1ccccc1OP(C)(=O)Nc1c(C)cccc1C (configuration not stated) | inactive: -2.54%
CN1CCCCC1COC(=O)C1(O)c2ccccc2CCc2ccccc21 (configuration not stated) | inactive: 1.46%
CC1=C2N=C(C=C3N=C(C(C)=C4[N-][C@@](C)([C@@H]5N=C1[C@](C)(CCC(=O)NC[C@@H](C)OP(=O)([O-])O[C@H]1[C@@H](O)[C@@H](n6cnc7cc(C)c(C)cc76)O[C@@H]1CO)[C@H]5CC(N)=O)[C@@](C)(CC(N)=O)[C@@H]4CCC(N)=O)[C@@](C)(CC(N)=O)[C@@H]3CCC(N)=O)C(C)(C)[C@@H]2CCC(N)=O.[C-]#N.[Co+3] | inactive: -0.55%
O=[N+]([O-])c1cc([N+](=O)[O-])c(Nc2nnnn2CCO)c([N+](=O)[O-])c1 | inactive: -1.29%
CCOC(=O)C(CC)C1=NC(C)(C)Cc2ccccc21.O=[N+]([O-])c1cc([N+](=O)[O-])c(O)c([N+](=O)[O-])c1 (configuration not stated) | inactive: -1.41%
Cc1nc2ccc3ccccc3c2s1.O=[N+]([O-])c1cc([N+](=O)[O-])c(O)c([N+](=O)[O-])c1 | inactive: -0.54%
O=[N+]([O-])c1cc([N+](=O)[O-])c(-c2cnn(-c3ccccc3)c2)c([N+](=O)[O-])c1 | inactive: -2.87%
O=[N+]([O-])c1cc([N+](=O)[O-])c(-n2nnc3ccccc32)c([N+](=O)[O-])c1 | inactive: 0.4%
Cc1ccccc1NP(C)(=O)Nc1ccccc1C | inactive: -1.22%
CP(=O)(Nc1ccc2c(c1)OCCO2)Oc1ccccc1 (configuration not stated) | inactive: 0.2%
CCOP(C)(=S)SCC(=O)NC(C)(CC)C(=O)O (configuration not stated) | inactive: 0.37%
CP(=O)(Nc1ccc(SC(F)(F)F)cc1)Oc1ccc(F)cc1 (configuration not stated) | inactive: -1.83%
Cc1c(C(c2ccc3c(c2)OCO3)c2c(C)n(C)n(-c3ccccc3)c2=O)c(=O)n(-c2ccccc2)n1C.O=[N+]([O-])c1cc([N+](=O)[O-])c(O)c([N+](=O)[O-])c1 | inactive: -0.56%

SMILES | inhibition
O=[N+]([O-])c1cc([N+](=O)[O-])c(NCC2CCS(=O)(=O)C2)c([N+](=O)[O-])c1 (configuration not stated) | inactive: -1.38%
Cc1cc(-c2cccc3ccccc23)c(C)cn1.O=[N+]([O-])c1cc([N+](=O)[O-])c(O)c([N+](=O)[O-])c1 | inactive: -1%
O=[N+]([O-])c1ccc(OP2(=O)COCCO2)cc1 (configuration not stated) | inactive: 2.03%
COc1ccc(NP(C)(=O)Oc2ccccc2OC)cc1 (configuration not stated) | inactive: 1.32%
CN(C)CCOC(=O)C(O)(c1ccccc1)C1CCCCC1 (configuration not stated) | inactive: -0.21%
COc1ccc(OP(C)(=O)Nc2cccc(Br)c2)cc1 (configuration not stated) | inactive: 1.05%
O=[N+]([O-])c1cc([N+](=O)[O-])c(OC2CCCCC2O)c([N+](=O)[O-])c1 (configuration not stated) | inactive: 0.09%
CCCCCOc1ccc(NP(C)(=O)Oc2ccc(Cl)cc2Cl)cc1 (configuration not stated) | inactive: 3.78%
CP(=O)(Nc1ccccc1)Oc1ccc(F)cc1 (configuration not stated) | inactive: -1.32%
CCN(CC)CCCOC(=O)C(O)(c1ccccc1)C1CCCCC1 (configuration not stated) | inactive: 0.22%
Cc1c([N+](=O)[O-])cc([N+](=O)[O-])c(Br)c1[N+](=O)[O-] | inactive: -0.37%
COc1ccc(OP(C)(=O)Nc2ccc(SC(F)(F)F)cc2)cc1 (configuration not stated) | inactive: 0.18%
CCOC(=O)c1ccc(NP(C)(=O)Oc2ccc(F)cc2)cc1 (configuration not stated) | inactive: -1.55%
COc1ccc2c(c1O)-c1c(O)c(OC)cc3c1[C@H](C2)[N+](C)(C)CC3.O=[N+]([O-])c1cc([N+](=O)[O-])c([O-])c([N+](=O)[O-])c1[O-] | inactive: -1.33%
O=C(OCCN1CCN(CCOCc2ccccc2)CC1)C(O)(c1ccccc1)c1ccccc1 | inactive: -1.36%
O=C(OC1CN2CCC1CC2)c1ccc([N+](=O)[O-])cc1 (configuration not stated) | inactive: 1.61%
CC(C)c1ccc(OP(C)(=O)Nc2ccc(SC(F)(F)F)cc2)cc1 (configuration not stated) | inactive: 0.49%
CP(=O)(Nc1ccccc1F)Oc1ccccc1 (configuration not stated) | inactive: -1%
O=[N+]([O-])c1cc([N+](=O)[O-])c(Nc2ccc(Cl)cc2)c([N+](=O)[O-])c1 | inactive: -3.51%
CCc1ccc(OP(C)(=O)O)cc1 | inactive: -0.55%
CP(=O)(Nc1ccccn1)Oc1ccccc1 (configuration not stated) | inactive: 0.44%
COc1ccccc1OP(C)(=O)Nc1ccc(C)cc1C (configuration not stated) | inactive: 0.12%
Cc1c(NP(C)(=O)Oc2ccc(C(C)C)cc2)c(=O)n(-c2ccccc2)n1C (configuration not stated) | inactive: 0.9%

SMILES | inhibition
O=[N+]([O-])c1cc([N+](=O)[O-])c(Nc2ccccn2)c([N+](=O)[O-])c1 | inactive: -0.96%
CN(C)CCOC(=O)C(O)(c1ccccc1)C1CCCC1 (configuration not stated) | inactive: 1.14%
COc1ccc(OP(C)(=O)Nc2ccccn2)cc1 (configuration not stated) | inactive: -0.38%
COc1ccccc1OP(C)(=O)Nc1ccc(Br)cc1 (configuration not stated) | inactive: -0.93%
CP(=O)(Nc1ccc(Cl)cc1Cl)Oc1ccccc1 (configuration not stated) | inactive: -0.39%
CCCCCCCCCCCCCCCC1C[N+](C)(C)CCOP(C)(=O)O1 (configuration not stated) | inactive: 1.21%
CP(=O)(OCCOc1ccccc1)OCCOc1ccccc1 | inactive: 1.58%
COc1ccc(OP(C)(=O)Nc2ccccc2Br)cc1 (configuration not stated) | inactive: -2.34%
COc1ccccc1OP(C)(=O)Nc1ccc(C)c(C)c1 (configuration not stated) | inactive: -0.35%
O=C1C(O)=C([N+](=O)[O-])C(=O)C(O)=C1[N+](=O)[O-] | inactive: -0.78%
Cc1cc(C)cc(OP(C)(=O)Nc2cccc(C(F)(F)F)c2)c1 (configuration not stated) | inactive: -0.82%
CP(=O)(OC12CC3CC(CC(C3)C1)C2)OC12CC3CC(CC(C3)C1)C2 | inactive: 1.3%
CCOC(=O)c1ccc(NP(C)(=O)Oc2ccc(Cl)cc2)cc1 (configuration not stated) | inactive: -0.02%
CN(C)C(=O)c1c([N+](=O)[O-])cc([N+](=O)[O-])cc1[N+](=O)[O-] | inactive: 3.41%
CP(=O)(Nc1ccc(Cl)cc1)Oc1ccc(F)cc1 (configuration not stated) | inactive: -0.59%
COc1ccccc1OP(C)(=O)Nc1ccccc1Br (configuration not stated) | inactive: -1.19%
CC(C)(C)c1ccc(OP(C)(=O)O)cc1 | inactive: -0.19%
CP(=O)(Oc1ccccc1)N1CCOC1=O (configuration not stated) | inactive: 0.08%
CCc1ccc(OP(C)(=O)Nc2cccnc2)cc1 (configuration not stated) | inactive: -0.27%
COc1ccccc1OP(C)(=O)Nc1c(C)n(C)n(-c2ccccc2)c1=O (configuration not stated) | inactive: -0.25%
O=C(OCCCN1CCCC1)C(O)(c1ccccc1)C1CCCCC1 (configuration not stated) | inactive: 0.04%
CCN(CC)CC(O)COC(=O)C(O)(c1ccccc1)C1CCCCC1 (configuration not stated) | inactive: 1.11%
COc1ccc(OP(C)(=O)Nc2ccc(Br)cc2)cc1 (configuration not stated) | inactive: 1.2%
